In the assay the target is T1, purified recombinant human Aggrecanase-2 (Agg2-Phe628) (Homo sapiens, UniProt Q9UNA0).
T1 construct: (Agg2-Phe628) (MW=41,737), which is a truncated form of full-length human aggrecanase-2; made in house; host or cells: CHO cells
T1 sequence (Q9UNA0 262-628 limits assumed): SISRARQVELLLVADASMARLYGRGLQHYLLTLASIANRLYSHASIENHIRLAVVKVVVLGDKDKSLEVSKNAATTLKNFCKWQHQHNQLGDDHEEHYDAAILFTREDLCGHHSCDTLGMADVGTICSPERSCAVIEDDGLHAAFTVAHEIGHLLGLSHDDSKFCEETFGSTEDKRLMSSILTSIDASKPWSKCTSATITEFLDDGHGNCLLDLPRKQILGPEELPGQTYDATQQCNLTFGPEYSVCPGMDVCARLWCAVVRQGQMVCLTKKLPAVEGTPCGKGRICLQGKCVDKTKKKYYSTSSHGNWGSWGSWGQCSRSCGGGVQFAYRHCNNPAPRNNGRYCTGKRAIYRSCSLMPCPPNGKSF
Nature of the assay: Aggrecanase 2 continuous in vitro fluorescence assay. The settings on record: Agg2-Phe628 0.5 μg/ml, substrate 25 μM, 30° C. It counts as biochemical. Here is the method:
A continuous vitro fluorescence assay was employed, wherein the enzyme used in the assay was a purified recombinant human Aggrecanase-2 (Agg2-Phe628) (MW=41,737), which is a truncated form of full-length human aggrecanase-2 that was expressed in CHO cells and purified prior to use. The final concentration of Agg2-Phe628 was 0.5 μg/ml. The buffer used in this assay was 50 mM HEPES, pH 7.5, 100 mM NaCl, 5 mM CaCl2, 0.1% CHAPS, 5% glycerol. The substrate used in the assay was a synthetic peptide having the sequence ABz-TESESRGAIY-Dap(Dnp)-KK—NH2 (>95% pure by HPLC, AnaSpec, Inc.), wherein Abz refers to ortho-aminobenzyl, a fluorescent group which is quenched by energy transfer to a 2,4-dinitrophenyl group. The final concentration of substrate in the assay was 25 μM and was spectrophotometrically determined using the extinction coefficient at 354 nm of 18,172 M^−1cm^−1. The Vmax and Km for this enzyme/substrate reaction were determined to be insensitive to DMSO up to at least 10% (v/v).
An illustrative Thiadiazole Compound (in duplicate) was serially diluted from 2 mM to 0.01 μM in DMSO. The total reaction volume was 100 μl. […]
The fluorescence intensity is linear during the time of data collection. […] The maximal rate of cleavage of substrate was determined in the absence of inhibitor. The percent inhibition of activity in the presence of inhibitor was calculated using the following equation: […]

Each structure is given as a SMILES string.

Results on one compound are retold here after patent US20080125469A1, “Thiadiazole compounds and methods of use thereof” (Wyeth, priority 2006, published 2008).

As usually defined, the IC50 is the concentration that inhibits the measured activity by half. Take `COc1ccc(C2=NNC3(S2)C(=O)N(Cc2ccccc2)c2ccc(C)cc23)cc1` (stereo not shown) [Compound 22, 1-benzyl-5′-(4-methoxyphenyl)-5-methyl-3′H-spiro[indole-3,2′-[1,3,4]thiadiazol]-2(1H)-one]: the half-maximal inhibitory concentration (IC50) came out at 644 nM.
